Yeast mating assay 1: variants of the scFv Ab-14

From the AlphaSeq antibody data of Engelhart et al. 2022 (doi:10.1038/s41597-022-01779-4), copy in the FLAb collection.

Target: peptide PDVDLGDISGINAS, taken from heptad repeat 2 (HR2) of SARS-CoV-2 spike.

Parent: Ab-14, a human scFv built as VH, three GGGGS repeats, VL. Only the CDRs of the heavy chain vary.
VH: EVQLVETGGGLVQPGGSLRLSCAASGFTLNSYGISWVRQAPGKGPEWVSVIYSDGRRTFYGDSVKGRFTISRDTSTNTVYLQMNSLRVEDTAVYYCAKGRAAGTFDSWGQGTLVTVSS
VL: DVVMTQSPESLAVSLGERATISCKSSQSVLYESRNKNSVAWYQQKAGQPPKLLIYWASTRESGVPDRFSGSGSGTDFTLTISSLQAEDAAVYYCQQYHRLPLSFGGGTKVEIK

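The parent was found by panning a naive human phage display library on the peptide. Variants in AAYL49 differ from the parent at up to three CDR positions; double and triple changes were sampled at random. In AlphaSeq, yeast of one mating type display the scFv and yeast of the other type display the target. Binding brings cells together so that they mate, and sequencing counts the barcode pairs among the diploids. Read counts were normalised to the haploid input and turned into Kd by a linear fit to BCL2-family pairs of known affinity, for each replicate. The assay was run in three technical replicates.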

Positions count from residue 1 of the parent VH; D54C puts C in place of D.
The read-out is the apparent dissociation constant on a log10 scale (nM): the lower, the stronger.
Replicates are averaged; those with no signal do not enter the mean.
A pair that was not seen in that replicate is written "ND"; this usually means weak binding, but a binder can also be missed.
Three control strains display no target. For library AAYL49, 15% of the pairings with them gave a signal, with a median of 4.06 and one signal in twenty below 2.83, so weak values seen in few replicates may be background. Also given: how often the same scFv was detected with the empty control strains, with their mean in brackets.

changes | replicates, log10 nM | log10 Kd (nM), mean | control signals
D54C A102I G103D | ND / 5.34 / 4.47 | 4.91 | 2/9 (4.52)
G26R G33F R100M | ND / ND / 4.70 | 4.70 | 5/9 (4.35)
Y60A V64L R100F | ND / ND / ND | ND | 1/9 (1.96)
T28W S63C K65I | ND / 4.12 / ND | 4.12 | 1/9 (4.34)
S53T D54W G99K | ND / ND / ND | ND | 0/9
S35A Y60V D106P | ND / ND / ND | ND | 2/9 (2.83)
S35L Y60T | ND / 2.88 / ND | 2.88 | 2/9 (4.16)
T104Q D106P | ND / 3.41 / ND | 3.41 | 4/9 (3.86)
F27V Y52F D62I | ND / ND / ND | ND | 0/9
G55K V64Q | ND / ND / ND | ND | 0/9
T28D G33H G61H | ND / ND / ND | ND | 2/9 (4.17)
G33K A102C S107W | ND / ND / ND | ND | 0/9
T58W F59V Y60P | ND / ND / ND | ND | 0/9
F59S S63Y K65G | 3.08 / 3.44 / 3.03 | 3.18 | 0/9
R56F Y60L A102K | ND / ND / ND | ND | 1/9 (3.90)
S35E R56L G61V | 4.94 / ND / ND | 4.94 | 4/9 (3.87)
T28F G103Q | 4.10 / 3.13 / 4.56 | 3.93 | 4/9 (4.04)
S35G D54A F59T | ND / 4.67 / 5.58 | 5.12 | 4/9 (4.78)
N30Y T58C | 4.90 / 2.81 / 2.70 | 3.47 | 0/9
G26H T104F D106F | ND / 2.81 / ND | 2.81 | 1/9 (4.39)
F27P I34D G99L | ND / ND / ND | ND | 0/9
S31N S53Y K65W | 2.36 / 3.13 / 2.46 | 2.65 | 0/9
S53E R57E D62Y | ND / ND / ND | ND | 4/9 (3.49)
G26H S35A D54S | ND / ND / ND | ND | 2/9 (3.88)
Y32N R56D Y60S | ND / ND / ND | ND | 2/9 (3.38)
I51K D54E G103D | ND / 3.50 / ND | 3.50 | 3/9 (3.76)
G55Y R56L G103D | ND / ND / ND | ND | 0/9
F27W N30G V64E | ND / ND / ND | ND | 1/9 (4.81)
G33P Y60R | ND / ND / ND | ND | 0/9
F27W G55V V64W | 3.51 / ND / ND | 3.51 | 4/9 (4.28)

Again, the first 4 entries without any signal:

changes	replicates, log10 nM	log10 Kd (nM), mean	control signals
Y60A V64L R100F	ND / ND / ND	ND	1/9 (1.96)
S53T D54W G99K	ND / ND / ND	ND	0/9
S35A Y60V D106P	ND / ND / ND	ND	2/9 (2.83)
F27V Y52F D62I	ND / ND / ND	ND	0/9